Assay results taken from ChEMBL document CHEMBL3763146 (J Med Chem, 2016).

Assays:
[1] = system: Beta-3 adrenergic receptor (Canis lupus familiaris); assay: Agonist activity at dog beta3 adrenergic receptor expressed in CHO cells assessed as accumulation of cAMP after 30 mins by TR-FRET assay relative to (R)-(-)-isoproterenol; settings: 0.5 h, read-out: max activation
Rattus norvegicus = assay: Dose normalized fAUC in rat at 2 mg/kg, po; format: ADME, organism-based; settings: in vivo
Rhesus monkey = assay: Dose normalized fAUC in rhesus monkey at 2 mg/kg, po; format: ADME, organism-based, Macaca mulatta; settings: in vivo
Canis familiaris = assay: Dose normalized fAUC in dog at 2 mg/kg, po; format: ADME, organism-based, Canis lupus familiaris; settings: in vivo

| Emax [1] | fAUC/dose (Rattus norvegicus) | fAUC/dose (Rhesus monkey) | fAUC/dose (Canis familiaris) | SMILES |
| --- | --- | --- | --- | --- |
| 86% | – | – | – | C[C@@H](C(=O)Nc1ccc(C[C@@H]2CC[C@H]([C@H](O)c3ccccc3)N2)cc1)n1ncccc1=O |
| 80% | <= 1 nM.hr/mg/kg | <= 1 nM.hr/mg/kg | <= 6 nM.hr/mg/kg | O=S(=O)(Nc1ccc(CCNC[C@H](O)c2cccnc2)cc1)c1ccc(-c2nc(-c3ccc(C(F)(F)F)cc3)cs2)cc1 |
